Assay results published in publication PMC3822589 (Journal of Cellular and Molecular Medicine, 2013).

System: HEL cells
Experiment: Cell proliferation assay
Type: cell-based, human

O=C(Nc1c[nH]nc1-c1nc2ccc(CN3CCOCC3)cc2[nH]1)NC1CC1 [AT9283] was tested, and the “effect on proliferation of HEL cells” value (0.3 or 1 μM, 72 hrs) was “reduced proliferation of HEL cells very effectively” and the IC50 (Homo sapiens, HEL, 72 h, read-out: IC50 values, Proliferation assay) was 29 ± 5 nM.
